Measurements from ChEMBL document CHEMBL3132836, “Structure-based drug design of chromone antagonists of the adenosine A2A receptor” (Medchemcomm, 2014).

Test system: CHO
Assay: Selectivity ratio of Ki for human adenosine A1 receptor expressed in CHO cells to Ki for human adenosine A2A receptor expressed in HEK293 cells
Type: cell-based

CCOc1cc2occ(-c3nc(C)cs3)c(=O)c2cc1CC
Ratio Ki: > 100
